Sequences of proteins named here, by UniProt entry; tags and fusion partners are left off.
UniProt Q9H8M2, whole entry: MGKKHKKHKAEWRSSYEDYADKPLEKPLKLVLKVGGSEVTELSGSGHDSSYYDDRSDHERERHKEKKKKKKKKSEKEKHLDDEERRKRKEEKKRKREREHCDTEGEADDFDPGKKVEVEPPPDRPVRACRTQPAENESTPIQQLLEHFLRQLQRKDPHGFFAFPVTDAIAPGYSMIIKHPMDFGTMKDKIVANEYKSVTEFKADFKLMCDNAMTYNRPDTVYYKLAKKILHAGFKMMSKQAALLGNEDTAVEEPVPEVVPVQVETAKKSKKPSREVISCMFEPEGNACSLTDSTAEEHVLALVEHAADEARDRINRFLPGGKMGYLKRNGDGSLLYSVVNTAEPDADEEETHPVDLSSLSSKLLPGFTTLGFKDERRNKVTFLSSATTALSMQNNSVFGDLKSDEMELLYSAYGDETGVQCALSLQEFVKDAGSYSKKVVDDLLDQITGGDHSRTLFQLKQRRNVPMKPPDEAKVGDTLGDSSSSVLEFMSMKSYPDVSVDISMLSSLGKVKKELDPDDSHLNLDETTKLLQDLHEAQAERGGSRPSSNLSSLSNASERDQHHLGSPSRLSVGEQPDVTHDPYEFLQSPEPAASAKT

In patent US12391686B2, “Compounds and uses thereof” (Foghorn Therapeutics Inc., priority 2019, dated 2025):

Target: Nanoluciferase-BRD9 fusion protein (3×FLAG-NLuc-BRD9) in SYO-1 cells (Homo sapiens, UniProt Q9H8M2)
Assay: SYO1 BRD9 NanoLuc Degradation Assay
Details: read-out: SYO1 BRD9-NanoLuc degradation IC50, SYO-1 cells expressing 3×FLAG-NLuc-BRD9, 6 hours incubation, 1 μM top dose

IC50 (Table 6B, tested form: formate)	Structure (SMILES)	IC50 (Table 6C, tested form: formate)	IC50 (Table 6B)
	COc1cc(-c2cn(C)c(=O)c3cnc(N4CCOCC4)cc23)cc(OC)c1CN1CCC(C(C2CCC3(CC2)CC(Oc2ccc4c(c2)C(=O)N(C2CCC(=O)NC2=O)C4)C3)C(F)(F)F)CC1 (stereo not drawn)	< 10 nM	
10 to 100 nM	CNc1cc2c(=O)n(C)cc(-c3cc(OC)c(CN(C)CC45CC(C(=O)NCCCCCOc6cccc7c6C(=O)N(C6CCC(=O)NC6=O)C7=O)(C4)C5)c(OC)c3)c2cn1 (stereo not drawn)		
	COc1cc(-c2cn(C)c(=O)c3cnc(N4CCC4)cc23)cc(OC)c1CN1CCC(CCN2CCN(c3ccn4c(=O)n(C5CCC(=O)NC5=O)nc4c3)CC2)CC1 (stereo not drawn)		< 10 nM
	COc1cc(-c2cn(C)c(=O)c3cnc(CO)cc23)cc(OC)c1CN1CCC2(CC1)CN(c1ccc3c(c1)C(=O)N(C1CCC(=O)NC1=O)C3)C2 (stereo not drawn)	100 to 1000 nM	
	COc1cc(-c2cn(C)c(=O)c3cnc(N(C)C)cc23)cc(OC)c1CN1CCC2(CCC(N3Cc4cc5c(cc4C3)C(=O)N(C3CCC(=O)NC3=O)C5=O)CC2)CC1 (stereo not drawn)		< 10 nM
< 10 nM	CNc1cc2c(=O)n(C)cc(-c3cc(OC)c(CN4CC5CN(C(=O)CCOCCOc6ccc7c(c6)C(=O)N(C6CCC(=O)NC6=O)C7=O)CCC54)c(OC)c3)c2cn1 (stereo not drawn)		

Read-outs that look alike come from different tables or passages of the source.
